Measurements published in patent US20080248097A1, “POLYMERIC MICELLES FOR COMBINATION DRUG DELIVERY” (priority 2007, published 2008).

How the values were obtained:
tumor = assay: Cancer treatment efficacy and toxicity in tumor-bearing mice (Table 2, therapeutic window); details: for Toxic Death: deaths/animals
[1] = Biodistribution and plasma levels in tumor-bearing mice; details: 10 mg/kg (DOX equivalent), CDF1 mice

poly(ethylene glycol)poly(aspartate-hydrazone-adriamycin) [DOX-Micelle]
Weight change on day 30 (%) (tumor; dose 5 mg/kg): −0.89 ± 1.68%
Toxic Death (tumor; dose 5 mg/kg): 0/6
Weight change on day 30 (%) (tumor; dose 10 mg/kg): −4.51 ± 1.44%
Toxic Death (tumor; dose 10 mg/kg): 0/6
Weight change on day 30 (%) (tumor; dose 20 mg/kg): 3.13 ± 1.60%
Toxic Death (tumor; dose 20 mg/kg): 0/6
Weight change on day 30 (%) (tumor; dose 40 mg/kg): −4.07 ± 0.92%
Toxic Death (tumor; dose 40 mg/kg): 0/6
dose remained in the blood ([1]; after 24 hours): 17%
accumulation in tumors, higher than doxorubicin ([1]; after 48 hours): 11 fold
stability of micelles (ADR release) (over 72 hours, region A: physiological and early endosomal pH conditions): stable
ADR release from micelles (pH decreasing from 7.4 to 3.0): time- and pH-dependently
